Assay outcomes (PubChem BioAssay)
Most compounds without a hit are left out; they make up all but 0.45% or so of the library.
Tn7 DDE FP = inhibitors of Tn7 peptide binding to human fibrin DD(E). P02675. FP displacement of FITC-Tn7 peptide from fibrin DD(E); 0% = median of compound wells per plate. inhibition, % at 8.3 µM. 370,000 compounds, 0.13% hits. AID 720508;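 active means inhibition above the mean of compounds falling within the control limits plus 3 SD of them, cut at about 14% in these data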;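 further: 0% = plate median of compound wells and 100% = 10 µM Aha-Tn7 peptide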
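Assay system: human fibrin DD(E) protein / Input: 2 µM fibrin DD(E) / Benchmarks: high control of 10 µM Aha-Tn7 peptide / Measured by: fluorescence polarization of the labelled Tn7 tracer / Medium: Tris buffer with calcium and detergent, pH 7.8 / Timing: 10 min compound pre-incubation, 3 h probe incubation at room temperature / Repeats: one replicate per compound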
PglD DTNB = blocks C. jejuni PglD acetyltransferase activity | purified PglD enzyme, DTNB colorimetric CoA detection | inhibition, % at 12.5 µM | 360,000 compounds, 0.098% hits | AID 602405; in the data active means inhibition above about 16%, passing the limit was not always enough
DDE Tn6 FP inh = inhibitors of Tn6 peptide binding to human fibrin DD(E); P02675; inhibition, % at 8.3 µM; AID 720509; 370,000 compounds, 0.21% hits; Fibrin DD(E) TRITC-Tn6 fluorescence polarization displacement;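 active means inhibition above a per-campaign cutoff: mean of compounds within control limits plus 3 SD, cut at about 15% in these data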;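 further: 0% = median of all compound wells on the plate and 100% = blocking peptide control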
UUG fidelity = yeast start codon fidelity modulation | S. cerevisiae UUG-firefly luciferase reporter, luminescence/redox ratio | activity score, % at 18.7 µM | hit rate 0.13% among 350,000 | AID 602363;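 active means replicate mean at a twofold rise or more, about +100% in these data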;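 further: firefly luciferase made from a UUG start codon reports start codon fidelity; reporter light over untreated wells divided by growth signal over untreated wells; some hits fall short of that in this replicate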
Starred values were filed as active, the others as inactive; / = no result given; + = active, no number.

[1] O=C(Nc1cccc2[nH]ncc12)NS(=O)(=O)c1ccccc1
[2] CC(=O)Nc1ccc(S(=O)(=O)Nc2cccc3[nH]ncc23)cc1
[3] Cc1ccc(-c2ccc3c(c2)O[C@@H](CN(C)Cc2ccccc2)[C@@H](C)CN([C@@H](C)CO)S3(=O)=O)cc1
[4] Cc1cc2cc(CNC(=O)c3ccc(S(=O)(=O)N4CCCCC4)cc3)ccc2n1C
[5] CO[C@H]1CN(C)C(=O)c2cc(NC(C)=O)ccc2OC[C@H](C)N(Cc2cccnc2)C[C@@H]1C
[6] O=C(C[C@@H]1CC[C@@H](NS(=O)(=O)c2ccc(F)cc2)[C@@H](CO)O1)NC1CCCCC1
Assay by compound | 1 | 2 | 3 | 4 | 5 | 6
Tn7 DDE FP | 3 | -1 | / | 2 | / | /
PglD DTNB | -4 | / | 0 | -4 | 5 | -1
DDE Tn6 FP inh | 60* | -3 | / | 164* | / | /
UUG fidelity | -2 | / | 1 | -8 | / | -10

Sorted by molar mass (ascending): part of the list above.
[1] O=C(Nc1cccc2[nH]ncc12)NS(=O)(=O)c1ccccc1
[2] CC(=O)Nc1ccc(S(=O)(=O)Nc2cccc3[nH]ncc23)cc1
[5] CO[C@H]1CN(C)C(=O)c2cc(NC(C)=O)ccc2OC[C@H](C)N(Cc2cccnc2)C[C@@H]1C
Assay by compound | 1 | 2 | 5
Tn7 DDE FP | 3 | -1 | /
PglD DTNB | -4 | / | 5
DDE Tn6 FP inh | 60* | -3 | /
UUG fidelity | -2 | / | /

Continuation.
[7] CCOc1cccc(CNc2ccc(O)cc2)c1OCc1ccc(Cl)cc1
[8] CCOc1ccccc1CNc1ccc(O)cc1
[9] CO[C@@H]1CN(C)C(=O)c2cc(NC(=O)c3cnccn3)ccc2OC[C@@H](C)N(CCc2ccccc2)C[C@H]1C
[10] COC(=O)C[C@H]1CC[C@@H](NC(=O)Nc2ccc(C(F)(F)F)cc2)[C@H](CO)O1
[11] COc1ccc(NC(=O)Nc2cccc3c2O[C@H](CN(C)Cc2ccncc2)[C@@H](C)CN([C@H](C)CO)C3=O)cc1
[12] COc1ccc(NC(=O)Nc2cccc3c2O[C@H](CN(C)Cc2ccncc2)[C@H](C)CN([C@@H](C)CO)C3=O)cc1
Assay by compound | 7 | 8 | 9 | 10 | 11 | 12
Tn7 DDE FP | -7 | 4 | / | / | / | /
PglD DTNB | / | / | 1 | 6 | -2 | 22*
DDE Tn6 FP inh | 15* | 3 | / | / | / | /
UUG fidelity | / | / | -10 | -5 | -6 | 4

[13] Cc1noc(C)c1NC(=O)Nc1cccc2c1O[C@H](CN(C)CC1CCCCC1)[C@H](C)CN([C@H](C)CO)C2=O
[14] C[C@H]1CCCCO[C@H](CN(C)S(=O)(=O)c2ccc(Cl)cc2)[C@@H](C)CN([C@@H](C)CO)C(=O)c2cc(NC(=O)c3ccccc3)ccc2O1
[15] COc1ccc(OC)c2cc3ccccc3cc12
[16] CCCN(C)C[C@@H]1Oc2cc(C#CC3CCCC3)ccc2S(=O)(=O)N([C@@H](C)CO)C[C@@H]1C
[17] Cn1c(=O)c(NCCc2ccccc2)c2c3c(cccc31)C(=O)c1ccccc1-2
[18] Cn1c(=O)c(NCCO)c2c3c(cccc31)C(=O)c1ccccc1-2
Assay by compound | 13 | 14 | 15 | 16 | 17 | 18
Tn7 DDE FP | / | / | 18* | / | -1 | -8
PglD DTNB | 18* | -3 | -2 | 4 | -2 | -3
DDE Tn6 FP inh | / | / | -2 | / | + | 37*
UUG fidelity | 35 | -18 | -18 | 3 | -27 | -28

[19] C[C@@H]1CCCCO[C@H](CN(C)Cc2ccc3c(c2)OCO3)[C@H](C)CN([C@@H](C)CO)C(=O)c2cc(NC(=O)Nc3ccc(F)cc3)ccc2O1
[20] OCCN(CCO)c1nc(N2CCCCC2)c2nc(N(CCO)CCO)nc(N3CCCCC3)c2n1
[21] Cc1c(C(=O)O)c(O)cc2c1C(=O)c1c(O)c([C@@H]3O[C@H](CO)[C@@H](O)[C@H](O)[C@H]3O)c(O)c(O)c1C2=O
[22] CC(C)C(Cl)=NOC(=O)Nc1ccc(F)cc1
[23] C/C(=N\OC(=O)Nc1ccc(Cl)cc1)c1ccc(F)c(F)c1
[24] O=C(C[C@@H]1C[C@@H]2c3cc(NC(=O)NC4CCCCC4)ccc3O[C@@H]2[C@@H](CO)O1)NCc1cccnc1
Assay by compound | 19 | 20 | 21 | 22 | 23 | 24
Tn7 DDE FP | / | 26* | 7 | -4 | 8 | /
PglD DTNB | 4 | 1 | -3 | / | 2 | 54*
DDE Tn6 FP inh | / | 1 | 18* | 20* | 5 | /
UUG fidelity | 22 | 1 | 13 | / | -11 | -14

[25] CCOC(=O)Cc1csc(NC(=O)CSc2nnc(-c3ccncc3)o2)n1
[26] Cc1csc(NC(=O)CSc2nnc(-c3ccncc3)o2)n1
[27] O=C(C[C@@H]1C[C@H]2c3cc(NC(=O)Nc4ccccc4)ccc3O[C@H]2[C@H](CO)O1)NCc1ccncc1
[28] CCCCNc1c2c3c(cccc3n(C)c1=O)C(=O)c1ccccc1-2
[29] Cn1c(=O)c(N)c2c3c(c(Br)ccc31)C(=O)c1ccccc1-2
[30] COc1ccc(S(=O)(=O)N(C)C[C@@H]2Oc3ccc(NC(=O)Nc4ccc5c(c4)OCO5)cc3C(=O)N([C@H](C)CO)C[C@@H]2C)cc1
Assay by compound | 25 | 26 | 27 | 28 | 29 | 30
Tn7 DDE FP | -7 | 2 | / | / | -6 | /
PglD DTNB | / | 0 | -3 | 0 | -10 | 1
DDE Tn6 FP inh | 3 | 17* | / | / | 16* | /
UUG fidelity | / | 0 | -3 | -16 | -14 | -17

[31] O=C(CCl)Nc1ccccc1Sc1ccccc1
[32] O=C(Cc1ccc(Cl)cc1)Nc1ccccc1Sc1ccccc1
[33] CN(C)C(=O)C[C@H]1CC[C@H]2[C@@H](COc3ccc(NC(=O)c4cnccn4)cc3C(=O)N2C)O1
[34] COC(=O)[C@]1(Cc2ccccc2)N=C(c2ccc(OCCCO)cc2)O[C@@H]1c1ccccc1N=[N+]=[N-]
[35] O=C1NC(=O)C2(N1)C(=O)c1cccc3cccc2c13 (stereo not given)
[36] O=C(C[C@@H]1C=C[C@H](NC(=O)Nc2cc(F)ccc2F)[C@@H](CO)O1)NCc1ccccn1
Assay by compound | 31 | 32 | 33 | 34 | 35 | 36
Tn7 DDE FP | -4 | 5 | / | / | 4 | /
PglD DTNB | -1 | 0 | -1 | -5 | -2 | -2
DDE Tn6 FP inh | 3 | 7 | / | / | 39* | /
UUG fidelity | 509* | -21 | -6 | 7 | -3 | -21

[37] CN(CCC#N)c1ccc(/C=C(\C#N)c2ccccn2)cc1
[38] CCN(Cc1ccccc1)c1ccc(/C=C(\C#N)c2ccccn2)cc1
[39] CCCN(C)C[C@@H]1Oc2cc(-c3cncnc3)ccc2S(=O)(=O)N([C@@H](C)CO)C[C@@H]1C
[40] CC(C)(C)c1ccc(C(=O)N/C(=C\c2cccc([N+](=O)[O-])c2)C(=O)Nc2cccc(C(=O)O)c2)cc1
[41] C[C@H](O)C#Cc1ccc2c(c1)O[C@H](CN(C)CC1CC1)[C@H](C)CN([C@@H](C)CO)S2(=O)=O
[42] C[C@H](CO)N1C[C@H](C)[C@@H](CN(C)C(=O)Nc2ccc(C(F)(F)F)cc2)Oc2ccc(NC(=O)Nc3ccc(C(F)(F)F)cc3)cc2C1=O
[43] COc1ccc(S(=O)(=O)N(C)C[C@@H]2Oc3ccc(NC(=O)C4CC4)cc3C(=O)N([C@H](C)CO)C[C@H]2C)cc1
Assay by compound | 37 | 38 | 39 | 40 | 41 | 42 | 43
Tn7 DDE FP | 4 | 5 | / | -8 | / | 0 | /
PglD DTNB | -13 | 2 | 16* | 36* | / | -2 | 16*
DDE Tn6 FP inh | 31* | 2 | / | -7 | / | 31* | /
UUG fidelity | -44 | -10 | 0 | -11 | -16 | -17 | 26
